# Binding of CDR-mutated scFvs to a peptide of the spike HR2 region

Binding partner: SARS-CoV-2 spike HR2 peptide, sequence PDVDLGDISGINAS.

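Designed CDR sequences, proposed from the first random library and measured here. Group labels follow the data file (En: ensemble of fine-tuned language models; HC: hill climbing; Gen: genetic algorithm; Gibbs: Gibbs sampling; a sequence that several methods proposed may carry one label only). In AlphaSeq, yeast of one mating type display the scFv and yeast of the other type display the target. Pairs that bind mate more often; barcode pairs of the diploids are counted by sequencing. A regression on co-assayed BCL2-family reference pairs converts the normalised counts of each replicate to an apparent Kd. There are six technical replicates.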

Each scFv is VH, three GGGGS repeats, VL, as in the parent Ab-14, and differs from it in the CDRs of the heavy chain only.
VH: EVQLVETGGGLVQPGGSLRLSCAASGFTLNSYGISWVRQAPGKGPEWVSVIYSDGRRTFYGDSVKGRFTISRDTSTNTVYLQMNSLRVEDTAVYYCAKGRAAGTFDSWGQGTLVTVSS
VL: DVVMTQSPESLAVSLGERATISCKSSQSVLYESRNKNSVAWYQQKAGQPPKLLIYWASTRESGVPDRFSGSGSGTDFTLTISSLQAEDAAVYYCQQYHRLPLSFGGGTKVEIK

Each variant is given by its three heavy chain CDRs, as the data file delimits them; those of the parent are GFTLNSYGIS, VIYSDGRRTFYGDSVK, GRAAGTFDS. Variants here have more than six changes. Numbers give log10(Kd / nM), so 0 is 1 nM and 3 is 1 µM. Smaller is tighter. A mean of the replicates is given; it leaves out those without a signal. A pair that was not seen in any replicate is written "nd"; this usually means weak binding, but a binder can also be missed. Three control strains display no target. For all heavy chain designs, 1% of the pairings with them gave a signal, with a median of 2.08 and one signal in twenty below 0.84, so weak values seen in few replicates may be background. Of ten entries with the parent sequence, four were seen in most replicates (averages 0.34 to 2.37), three in one and three in none, so single entries are noisy. The authors averaged sequences with at least three values out of six and counted those with two or fewer as poor binders. The range of this assay differs from that of the first round, and the authors advise against merging the two.

- GFDLQEYGIS | VIYADGKRRAYENKVK | GQSVGSVVI [En_Gibbs]: nd (0 of 6 replicates)
- GFDLDEYGIS | VIYADGQRTAYSDSVK | GNNAGTFDL [En_Gen]: -0.57 (6 of 6 replicates)
- GFDLNEYGIS | VIYADGMRTFYDDSVK | GQNAGTFDF [En_HC]: 0.57 (6 of 6 replicates)
- GFDLNEYGIS | VIYADGKRTAYADNVK | GTVAGTFDV [En_Gen]: -0.48 (6 of 6 replicates)
- GFNLNEYGIS | VIYADGRRTFYSDSVK | GEVGGTFDV [En_HC]: 0.57 (5 of 6 replicates)
- GFDLDEYGIS | VIYADGMRTAYADKVK | GENAGTFDL [En_Gen]: -0.34 (6 of 6 replicates)
- GFDLDEYGIS | VIYADGKRTYYADSVK | GETAGTFDV [En_Gen]: -0.39 (6 of 6 replicates)
- GFDLNEYGIS | VIYADGMRTAYSDSVK | GGQAGTFDV [En_Gen]: -0.70 (6 of 6 replicates)
- GFDLNEYGIS | VIYADGRRTFYSDSVK | GTFAGTFDV [En_HC]: -0.76 (6 of 6 replicates)
- GFDLNEYGIS | VIYADGRRTFYSDSVK | GTNGGTFDI [En_HC]: -0.07 (6 of 6 replicates)
- GFDLNEYGIS | VIYADGLRTSYADSVK | GQLAGTFDM [En_HC]: -0.13 (6 of 6 replicates)
- GFDLNEYGIS | VIYADGRRTAYADKVK | GNVAGTFDV [En_Gen]: -0.51 (6 of 6 replicates)
- GFSIDEYGIS | VIYADGMRTAYVESVK | GTIDNNITT [En_Gibbs]: nd (0 of 6 replicates)
- GFDINEYGIS | VIYADGMRTFYADSVK | GQTAGTFDS [En_HC]: -0.84 (6 of 6 replicates)
- GFNLNEYGIS | VIYADGRRTFYSDSVK | GEVAGTFDV [En_HC]: -0.59 (6 of 6 replicates)
- GFDLDEYGIS | VIYADGRRTFYADSVK | GTTAGTFDA [En_HC]: -0.30 (6 of 6 replicates)
- GFDINEYGIS | VMYADGSRSVYQDKVK | GFQGGTLDM [En_Gibbs]: 2.91 (3 of 6 replicates)
- GFDLEEQGVS | VIYADGKRAQYSDNVK | GYQTGFIDV [En_Gibbs]: 2.24 (1 of 6 replicates)
- GESLNEYGIS | VIYADGLRSKYADKFK | GQLAGYGDV [En_Gibbs]: nd (0 of 6 replicates)
- GFSLDEYGIS | VIYADGVRTQYHDNVK | GTGGFDIEL [En_Gibbs]: nd (0 of 6 replicates)
- GFDLKEYGIS | VIYADGSRTAYSKNFK | GEFDGMVLV [En_Gibbs]: nd (0 of 6 replicates)
- GFDLDEYGIS | VIYADGMRVSYDQNVK | GHGGGSFNF [En_Gibbs]: nd (0 of 6 replicates)
- GQDLDEYGVS | VIYADGIRTQYTNDVK | GLYSGAFII [En_Gibbs]: 2.95 (1 of 6 replicates)
- GFDLNEYGIS | VIYADGRRTAYVDSVK | GNVAGTFDM [En_Gen]: 0.04 (6 of 6 replicates)
- GFDLNEYGIS | VIYADGRRTAYIDSVK | GHAAGTFDV [En_HC]: -0.23 (6 of 6 replicates)
- GFDVDEYGIS | VIYADGRRSQYANSVK | GAIGGTFDM [En_Gibbs]: nd (0 of 6 replicates)
- GFDLDEYGIS | VIYADGVRTAYADSVK | GGNAGTFDV [En_Gen]: -0.23 (6 of 6 replicates)
- GNDLQEYGIS | VIYADGMRNQYTQSVK | GMNAGVFDY [En_Gibbs]: nd (0 of 6 replicates)
- GFDLDEYGIS | VIYADGVRTAYADSVK | GNNAGTFDL [En_Gen]: -0.38 (6 of 6 replicates)
- GFNLDEYGVS | VIYADGNRNQYTEDVK | GTNGGAVDL [En_Gibbs]: nd (0 of 6 replicates)
- GFNLEEVGIS | VIYADGLRSAYVDAVK | GGVTDVDFV [En_Gibbs]: nd (0 of 6 replicates)
- GDDLENVGIS | VIYADGKRKAYAQKVK | GHTGGTFAD [En_Gibbs]: nd (0 of 6 replicates)
- GFDLNEYGIS | VIYADGMRSFYADSVK | GQLAGTFDS [En_HC]: -0.95 (6 of 6 replicates)
- GFDLDEYGIS | VIYADGMRTAYADSVK | GENAGTFDL [En_Gen]: -0.37 (6 of 6 replicates)
- GFDLDEYGIS | VIYADGMRTAYSDSVK | GSNAGTFDV [En_Gen]: -0.62 (6 of 6 replicates)
- EFDLNEYGVS | VIYADGHRTFYADHVK | GTEAGVFTI [En_Gibbs]: 1.40 (1 of 6 replicates)
- GFDLDEYGIS | VIYADGMRTAYADDVK | GEVAGTFDM [En_Gen]: -0.09 (6 of 6 replicates)
- GFDLNEYGIS | VIYADGMRTFYADKAK | GNAGIVVEV [En_Gibbs]: nd (0 of 6 replicates)
- GFDLNEYGIS | VIYADGMRTFYADSVK | GNVAGTFDA [En_Gen]: -0.36 (6 of 6 replicates)
- GFDLNEYGIS | VIYADGVRKAYADDVK | GNNAGTFDI [En_Gen]: -0.52 (6 of 6 replicates)
- GFDLNEYGIS | VIYADGKRTAYADNVK | GNEAGTFDV [En_Gen]: 0.30 (6 of 6 replicates)
- GFNLDEYGIS | VIYADGVRTQYAQSVK | GMNNGYIAG [En_Gibbs]: nd (0 of 6 replicates)
- GFDLNEYGIS | VIYADGMRTFYTDSVK | GEVAGTFDE [En_HC]: -0.58 (6 of 6 replicates)
- GEDLQEYGIS | VIYADGQRIYYSDDVK | GQVAGHFLV [En_Gibbs]: nd (0 of 6 replicates)
- GFALNEYGIS | VIYADGFRKAYINSVK | GVNNMDVNV [En_Gibbs]: 0.34 (6 of 6 replicates)
- GFDLNEYGIS | VIYADGRRTQYIDSVK | GNQAGTFDK [En_HC]: nd (0 of 6 replicates)
- GFDLNEYGIS | VIYADGRRTFYADSVK | GQNGGTFDV [En_HC]: 0.19 (6 of 6 replicates)

The first 6 variants above that were never detected:

- GFDLQEYGIS | VIYADGKRRAYENKVK | GQSVGSVVI [En_Gibbs]: nd (0 of 6 replicates)
- GFSIDEYGIS | VIYADGMRTAYVESVK | GTIDNNITT [En_Gibbs]: nd (0 of 6 replicates)
- GESLNEYGIS | VIYADGLRSKYADKFK | GQLAGYGDV [En_Gibbs]: nd (0 of 6 replicates)
- GFSLDEYGIS | VIYADGVRTQYHDNVK | GTGGFDIEL [En_Gibbs]: nd (0 of 6 replicates)
- GFDLKEYGIS | VIYADGSRTAYSKNFK | GEFDGMVLV [En_Gibbs]: nd (0 of 6 replicates)
- GFDLDEYGIS | VIYADGMRVSYDQNVK | GHGGGSFNF [En_Gibbs]: nd (0 of 6 replicates)

Data: MIT Lincoln Laboratory AlphaSeq set, Li et al. 2023, doi:10.1038/s41467-023-39022-2, as distributed in FLAb.